CycPeptMPDB entries from one study

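Conditions beyond the assay type are not listed; see the original paper. Other peptides of the study may be missing here. Peptides that the database sets to -10, its floor, are left out.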

PAMPA is the parallel artificial membrane permeability assay, which has no cells and reads passive diffusion. P is given in units of 10^-6 cm/s (from log10 values with two decimals); larger means faster passage.

| compound | PAMPA (10^-6 cm/s) |
|---|---|
| CC(C)C[C@@H]1NC(=O)[C@@H](CC(C)C)NC(=O)C[C@H](Cc2ccccc2)NC(=O)[C@@H]2CCCN2C(=O)[C@H](Cc2ccccc2)NC(=O)CN(Cc2ccccc2)C(=O)[C@@H]2CCCN2C1=O | 1 |
| CC(C)C[C@@H]1NC(=O)C[C@H](Cc2ccccc2)NC(=O)[C@@H]2CCCN2C(=O)[C@H](Cc2ccccc2)NC(=O)[C@@H](CC(C)C)NC(=O)[C@@H]2CCCN2C(=O)C[C@H](Cc2ccccc2)NC1=O | 1.3 |
| CC(C)C[C@@H]1C(=O)N[C@@H](Cc2ccccc2)C(=O)N2CCC[C@H]2C(=O)N(C)[C@@H](C)C(=O)N(C)[C@H](CC(C)C)C(=O)N(C)[C@@H](CC(C)C)C(=O)N2CCC[C@@H]2C(=O)N1C | 6.3 |
| CC(C)C[C@@H]1C(=O)N[C@@H](Cc2ccccc2)C(=O)N2CCC[C@H]2C(=O)N[C@@H](Cc2ccccc2)CC(=O)N(C)[C@@H](CC(C)C)C(=O)N(C)[C@H](CC(C)C)C(=O)N2CCC[C@@H]2C(=O)N1C | 2.4 |
| CC(C)C[C@@H]1NC(=O)[C@@H](CC(C)C)NC(=O)[C@H](C)N(C)C(=O)[C@H]2CCCN2C(=O)[C@H](Cc2ccccc2)NC(=O)CN(Cc2ccccc2)C(=O)[C@H]2CCCN2C1=O | 3.5 |
| CC(C)C[C@@H]1C(=O)N[C@@H](Cc2ccccc2)C(=O)N2CCC[C@@H]2C(=O)N[C@@H](C)C(=O)N(Cc2ccccc2)CC(=O)N[C@@H](Cc2ccccc2)CC(=O)N2CCC[C@H]2C(=O)N1C | 1.1 |
| CC(C)C[C@@H]1C(=O)N(Cc2ccccc2)CC(=O)N2CCC[C@@H]2C(=O)N(Cc2ccccc2)CC(=O)N[C@@H](Cc2ccccc2)C(=O)N(C)[C@@H](C)C(=O)N1C | 1.3 |
| CCCN1CC(=O)N(C)[C@@H](CC(C)C)C(=O)N(C)[C@H](CC(C)C)C(=O)N2CCC[C@@H]2C(=O)N[C@H](CC(C)C)C(=O)N[C@@H](Cc2ccccc2)C(=O)N2CCC[C@H]2C1=O | 10 |
| CC(C)C[C@@H]1C(=O)N2CCC[C@@H]2C(=O)N(Cc2ccccc2)CC(=O)N[C@@H](Cc2ccccc2)C(=O)N2CCC[C@@H]2C(=O)N[C@H](C)C(=O)N(C)[C@@H](CC(C)C)C(=O)N1C | 1.6 |
| CC(C)C[C@@H]1C(=O)N(C)[C@@H](CC(C)C)C(=O)N2CCC[C@H]2C(=O)N[C@H](CC(C)C)C(=O)N[C@@H](Cc2ccccc2)C(=O)N2CCC[C@H]2C(=O)N(C)[C@H](C)C(=O)N1C | 0.15 |
| CC(C)C[C@@H]1NC(=O)[C@H](CC(C)C)N(C)C(=O)C[C@H](Cc2ccccc2)NC(=O)[C@@H]2CCCN2C(=O)[C@H](Cc2ccccc2)NC(=O)[C@@H](CC(C)C)N(C)C(=O)[C@H]2CCCN2C1=O | 2.8 |
| CC(C)C[C@H]1C(=O)N(C)[C@@H](CC(C)C)C(=O)N2CCC[C@H]2C(=O)N(C)[C@@H](CC(C)C)C(=O)N[C@@H](Cc2ccccc2)C(=O)N2CCC[C@@H]2C(=O)N(C)[C@@H](C)C(=O)N1C | 13 |
| CCCN1CC(=O)N[C@H](CC(C)C)C(=O)N(C)[C@@H](CC(C)C)C(=O)N2CCC[C@@H]2C(=O)N[C@H](CC(C)C)C(=O)N[C@@H](Cc2ccccc2)C(=O)N2CCC[C@H]2C1=O | 1.9 |
| CC(C)C[C@H]1C(=O)N[C@@H](Cc2ccccc2)CC(=O)N2CCC[C@H]2C(=O)N(Cc2ccccc2)CC(=O)N[C@@H](Cc2ccccc2)C(=O)N2CCC[C@H]2C(=O)N(C)[C@H](C)C(=O)N1C | 1.3 |
| CCCN1CC(=O)N(C)[C@@H](CC(C)C)C(=O)N[C@@H](Cc2ccccc2)CC(=O)N2CCC[C@H]2C(=O)N(C)[C@@H](CC(C)C)C(=O)N[C@@H](Cc2ccccc2)C(=O)N2CCC[C@H]2C1=O | 6.3 |
| CC(C)C[C@@H]1NC(=O)C[C@H](Cc2ccccc2)NC(=O)[C@H](Cc2ccccc2)NC(=O)[C@@H](CC(C)C)N(C)C(=O)[C@@H]2CCCN2C(=O)[C@H](CC(C)C)NC1=O | 2.9 |
| CC(C)C[C@@H]1NC(=O)[C@H]2CCCN2C(=O)CN(Cc2ccccc2)C(=O)[C@H](CC(C)C)N(C)C(=O)C[C@H](Cc2ccccc2)NC(=O)[C@@H]2CCCN2C(=O)[C@H](Cc2ccccc2)NC1=O | 2.5 |
| CC(C)C[C@@H]1NC(=O)C[C@H](Cc2ccccc2)NC(=O)[C@H](Cc2ccccc2)NC(=O)[C@@H](CC(C)C)NC(=O)[C@@H]2CCCN2C(=O)[C@@H](CC(C)C)NC1=O | 2.8 |
| CC(C)C[C@@H]1NC(=O)[C@@H](CC(C)C)NC(=O)[C@@H](C)N(C)C(=O)[C@H]2CCCN2C(=O)[C@H](Cc2ccccc2)NC(=O)[C@@H](CC(C)C)N(C)C(=O)[C@H]2CCCN2C1=O | 5 |

A selection of 3 entries from above:

{"smiles": "CC(C)C[C@@H]1C(=O)N[C@@H](Cc2ccccc2)C(=O)N2CCC[C@H]2C(=O)N[C@@H](Cc2ccccc2)CC(=O)N(C)[C@@H](CC(C)C)C(=O)N(C)[C@H](CC(C)C)C(=O)N2CCC[C@@H]2C(=O)N1C", "PAMPA (10^-6 cm/s)": "2.4"}
{"smiles": "CC(C)C[C@@H]1NC(=O)C[C@H](Cc2ccccc2)NC(=O)[C@H](Cc2ccccc2)NC(=O)[C@@H](CC(C)C)NC(=O)[C@@H]2CCCN2C(=O)[C@@H](CC(C)C)NC1=O", "PAMPA (10^-6 cm/s)": "2.8"}
{"smiles": "CC(C)C[C@@H]1C(=O)N2CCC[C@@H]2C(=O)N(Cc2ccccc2)CC(=O)N[C@@H](Cc2ccccc2)C(=O)N2CCC[C@@H]2C(=O)N[C@H](C)C(=O)N(C)[C@@H](CC(C)C)C(=O)N1C", "PAMPA (10^-6 cm/s)": "1.6"}

Data: CycPeptMPDB; original report Townsend et al. 2020, doi:10.26434/chemrxiv.13335941.v1.